Experimental data taken from the Kinase Knowledgebase extract (Sharma et al. 2016).

The chains behind the UniProt entries cited, without tags or fusion partners. Where a name states a change or a piece, a line headed by the entry shows the natural chain unless it says otherwise.
UniProt P42338: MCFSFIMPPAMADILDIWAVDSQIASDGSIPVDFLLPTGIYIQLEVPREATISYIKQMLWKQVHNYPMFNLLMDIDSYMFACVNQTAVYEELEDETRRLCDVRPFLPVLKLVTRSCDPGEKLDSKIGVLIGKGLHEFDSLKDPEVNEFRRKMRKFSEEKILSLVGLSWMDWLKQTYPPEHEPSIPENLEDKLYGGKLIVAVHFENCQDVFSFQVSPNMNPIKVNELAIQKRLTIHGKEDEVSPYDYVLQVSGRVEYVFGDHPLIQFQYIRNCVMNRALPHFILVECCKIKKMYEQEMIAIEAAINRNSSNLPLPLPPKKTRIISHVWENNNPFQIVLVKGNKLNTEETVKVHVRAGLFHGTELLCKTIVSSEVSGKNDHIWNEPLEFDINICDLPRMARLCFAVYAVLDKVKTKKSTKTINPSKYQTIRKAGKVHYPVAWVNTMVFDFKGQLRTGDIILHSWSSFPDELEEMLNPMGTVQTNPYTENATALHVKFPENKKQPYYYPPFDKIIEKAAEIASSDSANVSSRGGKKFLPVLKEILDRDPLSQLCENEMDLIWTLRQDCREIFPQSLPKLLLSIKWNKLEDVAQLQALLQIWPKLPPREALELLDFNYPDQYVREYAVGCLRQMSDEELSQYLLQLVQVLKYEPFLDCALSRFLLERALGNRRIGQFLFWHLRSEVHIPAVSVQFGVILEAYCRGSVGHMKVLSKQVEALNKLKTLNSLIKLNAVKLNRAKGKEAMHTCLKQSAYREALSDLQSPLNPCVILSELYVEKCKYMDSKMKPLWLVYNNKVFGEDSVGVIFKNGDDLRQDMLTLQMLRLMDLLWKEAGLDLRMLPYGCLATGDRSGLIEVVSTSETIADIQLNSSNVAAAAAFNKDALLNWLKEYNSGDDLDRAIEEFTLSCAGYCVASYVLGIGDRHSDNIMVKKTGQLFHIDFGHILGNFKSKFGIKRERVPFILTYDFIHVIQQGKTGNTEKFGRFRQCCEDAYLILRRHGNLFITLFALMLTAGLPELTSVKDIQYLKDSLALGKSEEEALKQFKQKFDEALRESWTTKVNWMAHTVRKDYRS
UniProt P42336, whole entry, looked up: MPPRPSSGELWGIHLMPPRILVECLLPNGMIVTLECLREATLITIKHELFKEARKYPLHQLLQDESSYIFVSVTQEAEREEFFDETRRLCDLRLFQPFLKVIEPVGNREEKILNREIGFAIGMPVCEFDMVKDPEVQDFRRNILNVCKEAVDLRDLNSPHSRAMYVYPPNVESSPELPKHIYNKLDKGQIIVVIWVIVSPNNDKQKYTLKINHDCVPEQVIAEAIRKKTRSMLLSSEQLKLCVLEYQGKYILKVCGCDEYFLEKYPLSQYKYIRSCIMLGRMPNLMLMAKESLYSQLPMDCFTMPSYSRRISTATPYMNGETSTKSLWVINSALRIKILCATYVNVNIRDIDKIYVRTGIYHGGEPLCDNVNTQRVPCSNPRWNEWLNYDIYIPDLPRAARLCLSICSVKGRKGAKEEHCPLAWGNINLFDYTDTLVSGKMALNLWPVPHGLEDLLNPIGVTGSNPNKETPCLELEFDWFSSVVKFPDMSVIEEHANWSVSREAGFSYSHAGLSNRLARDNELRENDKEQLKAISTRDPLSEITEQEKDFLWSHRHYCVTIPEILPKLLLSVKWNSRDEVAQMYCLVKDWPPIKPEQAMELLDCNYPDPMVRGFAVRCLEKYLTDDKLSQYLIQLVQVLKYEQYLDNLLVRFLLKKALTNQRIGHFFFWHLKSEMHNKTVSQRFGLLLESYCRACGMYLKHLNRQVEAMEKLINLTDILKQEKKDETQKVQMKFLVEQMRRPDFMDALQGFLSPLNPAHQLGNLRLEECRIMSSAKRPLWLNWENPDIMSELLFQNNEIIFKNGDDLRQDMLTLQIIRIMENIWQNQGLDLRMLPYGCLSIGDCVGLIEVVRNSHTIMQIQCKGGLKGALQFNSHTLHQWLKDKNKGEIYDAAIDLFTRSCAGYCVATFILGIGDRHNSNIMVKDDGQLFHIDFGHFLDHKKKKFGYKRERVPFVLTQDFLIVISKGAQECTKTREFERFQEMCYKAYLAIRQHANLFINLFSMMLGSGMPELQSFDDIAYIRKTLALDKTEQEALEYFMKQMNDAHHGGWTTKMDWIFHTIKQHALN

Key:
PIK3CB (Human) [1] = target: PIK3CB (Human) (UniProt P42338); test: Cell-Based Assay; conditions: rat-1
PIK3CB (Human) [2] = target: PIK3CB (Human) (UniProt P42338); test: Enzyme Assay
PIK3CA (human) [3] = target: PIK3CA (human) (UniProt P42336); test: Cell-Based Assay; conditions: rat-1
PIK3CA (human) [4] = target: PIK3CA (human) (UniProt P42336); test: Enzyme Assay

SMILES	IC50 (PIK3CB (Human) [1]) [nM]	IC50 (PIK3CB (Human) [2]) [nM]	IC50 (PIK3CA (human) [3]) [nM]	IC50 (PIK3CA (human) [4]) [nM]
Nc1ncc(-c2cc(N3CCOCC3)nc(N3CCOCC3)n2)c(C(F)(F)F)n1	156	15		
CC[C@@H]1[C@@H](c2cccc(OC)c2)OC(=O)N1c1cc(-c2cnc(N)nc2C(F)(F)F)nc(N2CCOCC2)n1			930	71
CC[C@H]1[C@H](c2ccc(OC)cc2)OC(=O)N1c1cc(-c2cnc(N)nc2C(F)(F)F)nc(N2CCOCC2)n1				78
